# Source: the OPERA property sets (Mansouri et al. 2018)
# Details: experimental values compiled from the literature
row,Compound,solubility
1,CCN(c1c([N+](=O)[O-])cc([N+](=O)[O-])cc1[N+](=O)[O-])[N+](=O)[O-],0.199 mM
2,Nc1cc([N+](=O)[O-])c(O)c([N+](=O)[O-])c1,4.12 mM
3,CCOP(=O)(OC)OC,3240 mM
4,CCCCOP(C)(=O)OCCCC,38.4 mM
5,COC(=O)CO[N+](=O)[O-],181 mM
6,CCCCOP(=O)(CC)OCCCC,27 mM
7,O=[N+]([O-])C(Br)([N+](=O)[O-])[N+](=O)[O-],17 mM
8,O=[N+]([O-])c1cc([N+](=O)[O-])c(O)cc1O,0.39 mM
9,CN(/C(N)=N/[N+](=O)[O-])[N+](=O)[O-],245 mM
10,CCNc1c([N+](=O)[O-])cc([N+](=O)[O-])cc1[N+](=O)[O-],0.39 mM
11,CC(O)C([N+](=O)[O-])[N+](=O)[O-] (stereo unspecified),1200 mM
12,O=C(O)C1(O)c2ccccc2-c2ccccc21,10.8 mM
13,O=C(O)CNc1c([N+](=O)[O-])cc([N+](=O)[O-])cc1[N+](=O)[O-],4.05 mM
14,CCCCO[PH](=O)OCCCC,37.6 mM
15,O=C(OCC([N+](=O)[O-])([N+](=O)[O-])[N+](=O)[O-])c1ccccc1C(=O)OCC([N+](=O)[O-])([N+](=O)[O-])[N+](=O)[O-],0.264 mM
16,O=[N+]([O-])C(CCl)([N+](=O)[O-])[N+](=O)[O-],551 mM
